Assay results reported in patent publication US8765384B2.

The chains behind the UniProt entries cited, without tags or fusion partners. Residues count along the entry.
UniProt P02870, 31-210 limits assumed: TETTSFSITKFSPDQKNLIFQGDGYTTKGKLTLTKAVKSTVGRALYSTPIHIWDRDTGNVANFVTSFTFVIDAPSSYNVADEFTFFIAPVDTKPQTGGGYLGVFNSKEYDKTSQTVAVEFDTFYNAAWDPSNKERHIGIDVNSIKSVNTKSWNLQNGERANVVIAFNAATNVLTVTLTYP
UniProt P02870, 218-269 limits assumed: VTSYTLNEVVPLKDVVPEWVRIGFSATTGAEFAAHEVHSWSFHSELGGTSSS

Target: LCA (lectin protein) (Lens culinaris, UniProt P02870)
Assay: SPR measurement of bonding of LCA to sensor chip with immobilized ligand conjugate

Q: How did the “Ka: Assosication Rate Constant” value (ligand conjugate immobilized on gold chip, protein in PBS buffer) turn out when `O=C(CCCCC1CCSS1)NCC(=O)NC(CCC(=O)Nc1cccc(NC[C@H](O)[C@@H](O)[C@H](O[C@H]2O[C@H](CO)[C@@H](O)[C@H](O)[C@H]2O)[C@H](O)CO)c1)(CCC(=O)Nc1cccc(NC[C@H](O)[C@@H](O)[C@H](O[C@H]2O[C@H](CO)[C@@H](O)[C@H](O)[C@H]2O)[C@H](O)CO)c1)CCC(=O)Nc1cccc(NC[C@H](O)[C@@H](O)[C@H](O[C@H]2O[C@H](CO)[C@@H](O)[C@H](O)[C@H]2O)[C@H](O)CO)c1` (stereo partly drawn) was run?
A: 2.40 M^−1s^−1 × 10^4

Q: What about the Kd (read-out: KD: Dissociation Constant, ligand conjugate immobilized on gold chip, protein in PBS buffer) of the same molecule?
A: 6.04 µM

Q: And the bonding behavior (result in words)?
A: could bond
